Results as given in ChEMBL document CHEMBL1134894, “Fused azaindole derivatives: molecular design, synthesis and in vitro pharmacology leading to the preferential dopamine D3 receptor agonist FAUC 725” (Bioorg Med Chem Lett, 2002).

Protein sequences, listed by entry. Tags and fused reporters are not part of them.
UniProt P35462, whole entry: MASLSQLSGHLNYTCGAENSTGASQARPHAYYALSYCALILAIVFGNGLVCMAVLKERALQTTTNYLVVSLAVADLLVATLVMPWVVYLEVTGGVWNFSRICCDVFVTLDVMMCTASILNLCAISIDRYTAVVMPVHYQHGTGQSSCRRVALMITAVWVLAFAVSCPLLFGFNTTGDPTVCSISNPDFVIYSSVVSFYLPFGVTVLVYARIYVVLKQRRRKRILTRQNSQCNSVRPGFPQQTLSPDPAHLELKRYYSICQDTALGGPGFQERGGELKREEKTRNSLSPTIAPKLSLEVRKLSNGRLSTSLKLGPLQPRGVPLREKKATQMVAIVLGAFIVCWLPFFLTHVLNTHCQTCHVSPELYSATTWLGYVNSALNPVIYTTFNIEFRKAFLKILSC
UniProt P14416, whole entry: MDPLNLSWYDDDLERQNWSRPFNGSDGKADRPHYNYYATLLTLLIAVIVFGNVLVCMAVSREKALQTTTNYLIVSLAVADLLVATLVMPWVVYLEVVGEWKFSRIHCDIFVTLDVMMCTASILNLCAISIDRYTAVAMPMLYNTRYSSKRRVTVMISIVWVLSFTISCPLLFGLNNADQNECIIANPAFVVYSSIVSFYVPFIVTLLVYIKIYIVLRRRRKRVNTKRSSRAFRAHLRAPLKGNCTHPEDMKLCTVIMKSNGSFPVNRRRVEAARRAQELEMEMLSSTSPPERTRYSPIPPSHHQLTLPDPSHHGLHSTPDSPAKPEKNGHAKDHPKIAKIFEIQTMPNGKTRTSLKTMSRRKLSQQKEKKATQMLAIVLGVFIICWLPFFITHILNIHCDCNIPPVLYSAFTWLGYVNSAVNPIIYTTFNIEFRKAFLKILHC

How the values were obtained:
[1] = target: T1, D(3) dopamine receptor (Homo sapiens, UniProt P35462); assay: Binding affinity of compound measured using [3H]-spiperone for the cloned human Dopamine receptor D3 (high/low affinity is given as 25/1600)
[2] = target: T1, D(3) dopamine receptor; assay: Effective concentration required for agonistic activity against human D3 receptor; format: functional
[3] = target: T2, D(2) dopamine receptor (Homo sapiens, UniProt P14416); assay: Binding affinity of compound measured using [3H]spiperone for the cloned human dopamine receptor D2 short (high/low affinity is given as 27/1800)
[4] = target: T2, D(2) dopamine receptor; assay: Binding affinity of compound measured using [3H]spiperone for the cloned human dopamine receptor D2 long (high/low affinity is given as 9.0/1800)

CCCN1CCC[C@@H](c2cccc(O)c2)C1 [PRECLAMOL]
Ki [1]: 25 nM | EC50 [2]: 9.8 nM | Ki [3]: 27 nM | Ki [4]: 9 nM
